The data set has as its system rice (GA-tolerant). The experiment in a line: Greenhouse trial, crop plant compatibility in rice (GA-tolerant). Type of data set: in vivo. Conditions: 25 g of ai/ha; post-emergence, 1-3-leaf stage; scoring 15 days after application (Table 6). Here is the method: The trials were carried out under greenhouse conditions (test pots, diameter 8 cm, spray application using 300 l of water/hectare, 2 repetitions, 6 to 8 plants per pot, permanently flooded).
Scoring was by visual comparison of the treated with the untreated controls (0-100% scale, 13-15 days after the application) (see details in the respective tables).

In the case of oxadiargyl [C49], the “Damage to crop plants (%) rice (GA-tolerant) (≦15-20% acceptable)” value is listed as 15%.
